# Laboratory results: patent US20090123452
# Molecular target: Lys-plasminogen (UniProt P00747)
substance,measurement,value
Wild type u-PA (purified two-chain enzyme),Km,6.03 µM
same,kcat,70.1 s⁻¹
same,kcat/Km,1.1e+07 M⁻¹ s⁻¹
